# Where a name gives a salt, the structure may show the parent alone.
# Tested on: lung cancer
# Assay: Curative effect from in vivo studies in nude mice
structure (smiles),measurement,setting,value
"C#Cc1cccc(Nc2ncnc3cc(OCCOC)c(OCCOC)cc23)c1 [Erlotinib HCl, N-(3-Ethylnylphenyl)-6,7-bis(2-methoxyethoxy)-4-quinazolinamine]",Cure ratio,"IP, 2.5 mg/Kg",1/5
same,Cure ratio,"IP, 5 mg/Kg",2/5
same,Cure ratio,"IP, 10 mg/Kg",2/5
same,Cure ratio,"IP, 20 mg/Kg",3/5
same,Cure ratio,"oral, 2.5 mg/Kg",2/5
same,Cure ratio,"oral, 5 mg/Kg",0/5
same,Cure ratio,"oral, 10 mg/Kg",1/5
same,Cure ratio,"oral, 20 mg/Kg",2/5

# From patent publication US8921362B2, “6,7-dialkoxy quinazoline derivatives and methods of treating drug resistant and other tumors” (Natco Pharma Limited, priority 2008, dated 2014)
